Target: Delta-type opioid receptor (Homo sapiens, UniProt P41143)
Experiment: Displacement of [3H]pCl-DPDPE from human delta opioid receptor expressed in CHO cell membranes incubated for 60 mins by liquid scintillation counting

Sequences of proteins named here, by UniProt entry; tags and fusion partners are left off.
UniProt P41143, whole entry, looked up: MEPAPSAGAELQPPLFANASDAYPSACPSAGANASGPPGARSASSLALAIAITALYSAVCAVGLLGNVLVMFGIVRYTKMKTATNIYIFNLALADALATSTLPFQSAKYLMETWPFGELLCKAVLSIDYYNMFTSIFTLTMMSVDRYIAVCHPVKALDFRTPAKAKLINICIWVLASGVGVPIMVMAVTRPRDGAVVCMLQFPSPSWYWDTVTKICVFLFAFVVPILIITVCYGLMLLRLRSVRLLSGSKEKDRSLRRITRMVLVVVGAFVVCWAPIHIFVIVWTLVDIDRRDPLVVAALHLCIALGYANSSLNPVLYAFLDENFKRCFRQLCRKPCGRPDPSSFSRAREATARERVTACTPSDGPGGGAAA

## CN(C(=O)Cc1ccccc1)[C@H]1C[C@@]2(CCCO2)CC[C@@H]1N1CCCC1
  Ki: > 10 µM
